ChEMBL document CHEMBL2401681 (Bioorg Med Chem Lett, 2013)

Organism: Homo sapiens
Assay: Selectivity ratio of IC50 for human Gal4-ERalpha to IC50 for human Gal4-ERbeta

SMILES: CCC(CC)(c1ccc(N)c(C)c1)c1ccc(O)c(C)c1
- Ratio IC50: 2
